Data from BindingDB's records for doi:10.1016/s0028-3908(96)00171-2 (Smithkline Beecham Pharmaceuticals, 1997).

Chains of the proteins cited; added tags and fusions are not shown.
UniProt P41595, whole entry: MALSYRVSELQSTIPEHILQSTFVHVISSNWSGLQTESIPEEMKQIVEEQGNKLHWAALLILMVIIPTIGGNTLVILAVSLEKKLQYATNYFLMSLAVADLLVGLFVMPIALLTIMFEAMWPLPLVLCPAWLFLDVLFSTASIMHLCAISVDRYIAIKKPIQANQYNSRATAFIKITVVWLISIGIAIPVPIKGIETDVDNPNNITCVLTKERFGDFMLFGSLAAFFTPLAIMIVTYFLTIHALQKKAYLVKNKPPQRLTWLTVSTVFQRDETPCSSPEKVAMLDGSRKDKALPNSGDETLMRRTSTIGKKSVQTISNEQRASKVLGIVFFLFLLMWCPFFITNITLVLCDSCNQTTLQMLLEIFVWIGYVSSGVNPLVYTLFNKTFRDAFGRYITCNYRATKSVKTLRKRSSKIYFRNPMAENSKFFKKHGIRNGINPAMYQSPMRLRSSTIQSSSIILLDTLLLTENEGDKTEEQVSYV

Target: 5-hydroxytryptamine receptor 2B (Homo sapiens, UniProt P41595)

## CC(N)Cc1c[nH]c2ccc(OCc3cccs3)cc12 (stereo unspecified) [NSC_5311036]
  Ki: 63.1 nM
